{"source": "patent US20040014658A1", "assay_in_all_cases": "cell-based or functional assay", "key": {"[1]": {"biological_target": "FGFR3-IIIb isoform"}, "[2]": {"biological_target": "FGF Receptor 1"}, "[3]": {"biological_target": "FGF Receptor 2"}, "[4]": {"biological_target": "FGF Receptor 3"}}}
{"substance": "L37M-W144G-FGF9 (from UniProt P31371 38-208) (ligand)", "values": [{"measurement": "proliferation of FDCP cells expressing the FGFR3-IIIb isoform, level of the comparator (not given) over L37M-W144G-FGF9", "setting": "[1]", "value": "> 2", "unit": "fold"}, {"measurement": "concentration needed for a mitogenic response on FGFR1-transfected FDCP cells (FIG. 3)", "setting": "[2]", "value": "> 50", "unit": "ng/mL"}, {"measurement": "proliferation of FDCP-FGFR1 cells (XTT) at raised concentration (fold higher concentration)", "setting": "[2]", "value": 100}]}
{"substance": "L37M-FGF9 (from UniProt P31371 38-208) (ligand)", "values": [{"measurement": "JNK activation (Western, anti-active JNK), lowest active concentration", "setting": "[3]", "value": "< 12.5", "unit": "ng/mL"}, {"measurement": "JNK activation (Western, anti-active JNK), lowest active concentration", "setting": "[2]", "value": "< 12.5", "unit": "ng/mL"}, {"measurement": "JNK activation (Western, anti-active JNK), lowest active concentration", "setting": "[4]", "value": "< 12.5", "unit": "ng/mL"}]}
{"substance": "L37M-W144R-FGF9 (from UniProt P31371 38-208) (ligand)", "values": [{"measurement": "proliferation of FDCP-FGFR3 cells (XTT), level against FGF-9 (fold lower than FGF-9)", "setting": "[4]", "value": 5}]}
